From patent publication US10407409B2, “6-(5-hydroxy-1H-pyrazol-1-yl)nicotinamide inhibitors of PHD” (Takeda Pharmaceutical Company Limited, priority 2013, dated 2019)

Chains of the proteins cited; added tags and fusions are not shown. Residues count along the entry.
UniProt Q9GZT9, 181-417 limits assumed: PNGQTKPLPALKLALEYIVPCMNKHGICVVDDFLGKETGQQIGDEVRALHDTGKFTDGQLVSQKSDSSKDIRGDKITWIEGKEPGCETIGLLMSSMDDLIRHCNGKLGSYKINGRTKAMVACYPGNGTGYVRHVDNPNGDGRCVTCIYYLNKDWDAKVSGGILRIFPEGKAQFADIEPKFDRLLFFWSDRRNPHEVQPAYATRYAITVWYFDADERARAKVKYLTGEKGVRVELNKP

Legend:
[1] = target: PHD2 enzyme (residues 181-417) (Homo sapiens (Human), UniProt Q9GZT9); experiment: Inhibition of PHD enzyme (LC/MS peptide hydroxylation assay); type: biochemical; settings: PHD2 (residues 181-417) 5 nM, 60 min pre-incubation; -log(IC50), IC50 molar
Experimental: Example A Inhibition of PHD Enzyme
The IC50 values for the PHD2 enzyme (residues 181-417) were determined by mixing increasing amounts of inhibitor with a fixed amount of enzyme (5 nM, final concentration) and Biotin labeled peptide (Biotin-Asp-Leu-Glu-Met-Leu-Ala-Pro-Tyr-Ile-Pro-Met-Asp-Asp-Asp-Phe-Gln-Leu, 1 uM final concentration) and 2-Oxyglutarate (2 uM final concentration) in 50 mM HEPES, 50 mM KCl, 0.5 mM TCEP, 2 uM FeCl2, 0.1 mg/ml BSA, at pH 7.3. The reaction was conducted by pre-incubating the enzyme in the presence of inhibitor for 60 min at room temperature. The activity of the free enzyme was measured by adding the peptide, the 2-Oxoglutarate (see above for final concentrations), and Ascorbic Acid (1 mM final concentration). The enzymatic activity was quenched after 60 min by adding an excess of a tight binding inhibitor to the assay mixture. The amount of product released was measured by using a LC/MS system (Agilent HPLC with Applied Biosystems API3000 Mass Spectrometer). Data were analyzed using the classical isotherm equation for the determination of IC50 values and are pIC50, i.e., −log(IC50), where IC50 is molar concentration and are reported as pIC50, i.e., −log(IC50), where IC50 is molar concentration.

[2] = tested on: HIF1a protein in H9c2 rat cardiomyocytes; experiment: Cell-based HIF-alpha stabilization assay (inhibition of PHD in cells); settings: 24 hrs compound incubation, HIF1a protein by ELISA
Experimental: Example B Inhibition of PHD in Cells
PHD Inhibition is Determined Using (Secondary Assay)
Cell-Based HIF-Alpha Stabilization Assay:
H9c2 rat cardiomyocytes (ATCC) were seeded in 96-well tissue culture microplates and cultured for 24 hours prior to addition of compounds (11 point range of serial dilutions) or dimethylsulfoxide vehicle. After 24 hrs of compound incubation, whole cell extracts were prepared by lysing cells in cell extraction buffer containing protease and phosphatase inhibitors (Meso-Scale Discovery). HIF1a protein content was assessed by ELISA (Meso-Scale Discovery) and expressed as a % relative to the maximum response obtained from the positive control, desferrioxamine (Sigma-Aldrich). Compound EC50s were obtained by curve-fitting using XLfit4 MicroSoft Excel curve-fitting software. Compound EC50pos were obtained using XLfit4 to calculate the compound concentration that results in 50% of the desferrioxamine maximum response.

SMILES: COc1cc(-c2cnn(-c3ccc(C(=O)NCC4CCOCC4)cn3)c2O)ccn1
- PHD Inhibition (pIC50) [1]: 7.1
- Inhibition of PHD in cells (pEC50) [2]: 6.27
